Earlier results, collected in patent US20240315989A1 (priority 2021, published 2024).

Protein sequences, listed by entry. Tags and fused reporters are not part of them.
UniProt Q99720, whole entry: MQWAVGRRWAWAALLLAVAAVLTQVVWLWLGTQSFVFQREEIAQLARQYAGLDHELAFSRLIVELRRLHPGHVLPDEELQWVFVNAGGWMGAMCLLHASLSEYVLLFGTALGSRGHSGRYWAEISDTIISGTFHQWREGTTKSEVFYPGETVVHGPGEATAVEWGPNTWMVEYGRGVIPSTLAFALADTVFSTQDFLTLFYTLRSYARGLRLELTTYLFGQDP

Columns and labels:
σ1 site [1] = biological target: T1, σ1 site (Homo sapiens, UniProt Q99720); conditions: read-out: Affinity for σ1 Site (Ki or KD values); cited from earlier work
σ1 site [2] = biological target: T1, σ1 site; conditions: cited from earlier work

(+)-SKF-10,047
Ki (σ1 site [1]): < 0.05 µM
Function on σ1 Site (σ1 site [2]): Agonist

Pregnenolone sulfate
Ki (σ1 site [1]): < 10 µM
